Measurements from US20240254224A1 (UCB, published 2024).
Changes are numbered by the printed parent chain. “And” between values parts separate entries of the source, which are not always exact repeats. Equal values may be shown once.

By UniProt entry, the sequences of proteins in these tests, tags left out. Residues count along the entry.
UniProt Q9NP99, 21-234: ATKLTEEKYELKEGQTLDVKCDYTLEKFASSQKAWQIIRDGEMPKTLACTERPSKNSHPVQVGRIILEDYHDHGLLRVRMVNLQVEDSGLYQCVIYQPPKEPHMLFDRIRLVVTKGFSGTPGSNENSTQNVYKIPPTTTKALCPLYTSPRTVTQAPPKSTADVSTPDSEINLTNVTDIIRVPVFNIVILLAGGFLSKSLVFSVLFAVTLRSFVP
UniProt Q9NP99, 21-205 limits assumed: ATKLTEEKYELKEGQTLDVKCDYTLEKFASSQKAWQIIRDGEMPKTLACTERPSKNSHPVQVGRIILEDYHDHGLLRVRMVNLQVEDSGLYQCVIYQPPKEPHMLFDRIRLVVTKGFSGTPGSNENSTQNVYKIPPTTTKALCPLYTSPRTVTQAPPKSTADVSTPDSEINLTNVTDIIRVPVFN

B1: 12172 gL6gH6 hIgG4P (antibody)
heavy: not shown
light: DIVLTQSPSFLSASVGDRVTITCQASQNIGSDLAWYQQKPGKAPKLLIYKAATLASGVPSRFSGSGSGTEFTLTISSLQPEDFATYYCQQYYYGSAGADTDTFGGGTKVEIKRTVAAPSVFIFPPSDEQLKSGTASVVCLLNNFYPREAKVQWKVDNALQSGNSQESVTEQDSKDSTYSLSSTLTLSKADYEKHKVYACEVTHQGLSSPVTKSFNRGEC
notes: Humanised IgG4P, human kappa
B2: 12172 gL2gH11 hIgG1 LALA (antibody)
heavy: not shown
light: B1 light with V3Q
B3: 12172 gL6gH6 hIgG1 LALA (antibody)
heavy: not shown
light: B1 light
B4: 12172gL2gH26 (antibody, human IgG4 S228P, kappa)
heavy: not shown
light: B1 light with V3Q
B5: 12172gL9gH26 (antibody, human IgG4 S228P, kappa)
heavy: not shown
light: B1 light with V3Q, R18S
B6: 12172gL10gH26 (antibody, human IgG4 S228P, kappa, V domains shown)
VH: EVQLVESGGGLVQPGGSLRLSCAASGFSLSSYAMTWVRQAPGKGLEWIGIIYAGGSPSYASWAKGRFTISKDNSSNTLYLQMNSLRAEDTAVYYCARGTGDTVYTYFNIWGQGTLVTVSS
VL: DIQLTQSPSFLSASVGDRVTITCQASQNIGSDLAWYQQKPGQAPKLLIYKAATLASGVPSRFSGSGSGTEFTLTISSLQPEDFATYYCQQYYYGSAGADTDTFGGGTKVEIKR
notes: Recombinant IgG4P charge mutant
B7: 12172gL11gH26 (antibody, human IgG4 S228P, kappa, V domains shown)
VH: B6 VH
VL: B6 VL with Q42K, K50S
B8: 12172gL1gH1 (antibody, human IgG4 S228P, kappa)
heavy: not shown
light: B1 light with D1A, I2V
B9: 12172gL2gH1 (antibody, human IgG4 S228P, kappa)
heavy: not shown
light: B1 light with V3Q
B10: 12172gL2gH2 (antibody, human IgG4 S228P, kappa, V domains shown)
VH: B6 VH with I48V, N73S, S75K, L78V
VL: B6 VL with Q42K
B11: 12172gL2gH4 (antibody, human IgG4 S228P, kappa)
heavy: not shown
light: B1 light with V3Q
B12: 12172gL2gH6 (antibody, human IgG4 S228P, kappa)
heavy: not shown
light: B1 light with V3Q
B13: 12172gL2gH8 (antibody, human IgG4 S228P, kappa, V domains shown)
VH: B6 VH with N73S, S75K, L78V
VL: B6 VL with Q42K
B14: 12172gL2gH9 (antibody, human IgG4 S228P, kappa, V domains shown)
VH: B6 VH with K71R, S75K, L78V
VL: B6 VL with Q42K
B15: 12172gL2gH10 (antibody, human IgG4 S228P, kappa, V domains shown)
VH: B6 VH with K71R, N73S, S75K
VL: B6 VL with Q42K
B16: 12172gL2gH12 (antibody, human IgG4 S228P, kappa, V domains shown)
VH: B6 VH with K71R, S75K
VL: B6 VL with Q42K
B17: 12172gL6gH4 (antibody, human IgG4 S228P, kappa)
heavy: not shown
light: B1 light
B18: 12172gL6gH11 (antibody, human IgG4 S228P, kappa)
heavy: not shown
light: B1 light
B19: 12172gL9gH11 (antibody, human IgG4 S228P, kappa)
heavy: not shown
light: B1 light with V3Q, R18S
B20: 12172gL9gH48 (antibody, human IgG4 S228P, kappa, V domains shown)
VH: B6 VH with S75Q
VL: B6 VL with R18S, Q42K
B21: 12172gL9gH49 (antibody, human IgG4 S228P, kappa, V domains shown)
VH: B6 VH with S75E
VL: B6 VL with R18S, Q42K

Target: T1, human TREM1 on cells (human, UniProt Q9NP99 21-234)
Test: cell-based or functional assay

First: B1
Second: B2
The “percentage inhibition of CCL-3 release, activated primary human monocytes, antibody 1 nM” value of the first is lower: 38% for the first, 48% for the second.

For B3, the “percentage inhibition of CCL-3 release, activated primary human monocytes, antibody 1 nM” value was 26%.

First: B1
Second: B2
The “percentage inhibition of CCL-20 release, activated primary human monocytes, antibody 1 nM” value of the first is lower: 56% for the first, 65% for the second.

B3 was tested, and the “percentage inhibition of CCL-20 release, activated primary human monocytes, antibody 1 nM” value was 66%.

Going from B1 to B2, the “percentage inhibition of CXCL-9 release, activated primary human monocytes, antibody 1 nM” value falls from 73% to 72%.

B3 was tested, and the “percentage inhibition of CXCL-9 release, activated primary human monocytes, antibody 1 nM” value was 68%.

Compared with B1, B2 is higher in “percentage inhibition of G-CSF release, activated primary human monocytes, antibody 1 nM” value: 88% for the first, 89% for the second.

With B3 the “percentage inhibition of G-CSF release, activated primary human monocytes, antibody 1 nM” value was 86%.

First: B1
Second: B2
The “percentage inhibition of GM-CSF release, activated primary human monocytes, antibody 1 nM” value of the first is lower: 89% for the first, 91% for the second.

For B3, the “percentage inhibition of GM-CSF release, activated primary human monocytes, antibody 1 nM” value was 89%.

Compared with B1, B2 is higher in “percentage inhibition of IFN-γ release, activated primary human monocytes, antibody 1 nM” value: 57% for the first, 60% for the second.

B3 was tested, and the “percentage inhibition of IFN-γ release, activated primary human monocytes, antibody 1 nM” value was 53%.

Compared with B1, B2 is higher in “percentage inhibition of IL-1α release, activated primary human monocytes, antibody 1 nM” value: 107% for the first, 112% for the second.

For B3, the “percentage inhibition of IL-1α release, activated primary human monocytes, antibody 1 nM” value was 110%.

B1 and B2 are the same in “percentage inhibition of IL-1β release, activated primary human monocytes, antibody 1 nM” value: 96% for the first, 96% for the second.

For B3, the “percentage inhibition of IL-1β release, activated primary human monocytes, antibody 1 nM” value was 97%.

Going from B1 to B2, the “percentage inhibition of IL-6 release, activated primary human monocytes, antibody 1 nM” value rises from 57% to 58%.

With B3 the “percentage inhibition of IL-6 release, activated primary human monocytes, antibody 1 nM” value was 55%.

Compared with B1, B2 is lower in “percentage inhibition of IL-10 release, activated primary human monocytes, antibody 1 nM” value: 83% for the first, 77% for the second.

For B3, the “percentage inhibition of IL-10 release, activated primary human monocytes, antibody 1 nM” value was 73%.

B1 and B2 are the same in “percentage inhibition of IL-12p40 release, activated primary human monocytes, antibody 1 nM” value: 96% for the first, 96% for the second.

With B3 the “percentage inhibition of IL-12p40 release, activated primary human monocytes, antibody 1 nM” value was 95%.

Compared with B1, B2 is higher in “percentage inhibition of IL-15 release, activated primary human monocytes, antibody 1 nM” value: 69% for the first, 86% for the second.

In the case of B3, the “percentage inhibition of IL-15 release, activated primary human monocytes, antibody 1 nM” value is reported as 92%.

Compared with B1, B2 is higher in “percentage inhibition of IL-18 release, activated primary human monocytes, antibody 1 nM” value: 78% for the first, 85% for the second.

B3 was tested, and the “percentage inhibition of IL-18 release, activated primary human monocytes, antibody 1 nM” value was 81%.

Going from B1 to B2, the “percentage inhibition of IL-27 release, activated primary human monocytes, antibody 1 nM” value rises from 57% to 88%.

With B3 the “percentage inhibition of IL-27 release, activated primary human monocytes, antibody 1 nM” value was 74%.

Going from B1 to B2, the “percentage inhibition of TNF-α release, activated primary human monocytes, antibody 1 nM” value rises from 93% to 94%.

B3 was tested, and the “percentage inhibition of TNF-α release, activated primary human monocytes, antibody 1 nM” value was 94%.

First: B1
Second: B2
The “percentage inhibition of TNF-β release, activated primary human monocytes, antibody 1 nM” value of the first is higher: 63% for the first, 62% for the second.

In the case of B3, the “percentage inhibition of TNF-β release, activated primary human monocytes, antibody 1 nM” value is reported as 60%.

Target: T2, human TREM1 (SPR of the humanised grafts, construct not stated) (human, UniProt Q9NP99 21-205, limits assumed)
Test: SPR, human TREM1, IgG4P charge mutant, replicate values

With B4 the Kd was 0.624 nM and 0.672 nM.
In the case of B5, the Kd is reported as 0.559 nM and 0.616 nM.
In the case of B6, the Kd is reported as 0.578 nM and 0.659 nM.
With B7 the Kd was 0.532 nM and 0.633 nM.

Target: T1, human TREM1 on cells
Test: cell-based or functional assay
Remark: another data set of the same source

B1 and B2 are within 1.5-fold of each other in “Geo IC50, IL-1β release from PGN-BS/PGLYRP1-activated primary human monocytes (n = 2)” value: 0.028 nM for the first, 0.032 nM for the second.

With B3 the “Geo IC50, IL-1β release from PGN-BS/PGLYRP1-activated primary human monocytes (n = 2)” value was 0.025 nM.

Compared with B1, B2 is 3.1-fold higher in “Geo IC50, IL-6 release from PGN-BS/PGLYRP1-activated primary human monocytes (n = 4)” value: 0.036 nM for the first, 0.112 nM for the second.

B3 was tested, and the “Geo IC50, IL-6 release from PGN-BS/PGLYRP1-activated primary human monocytes (n = 4)” value was 0.178 nM.

Going from B1 to B2, the “Geo IC50, TNF-α release from PGN-BS/PGLYRP1-activated primary human monocytes (n = 4)” value rises from 0.026 nM to 0.043 nM (1.7-fold).

In the case of B3, the “Geo IC50, TNF-α release from PGN-BS/PGLYRP1-activated primary human monocytes (n = 4)” value is reported as 0.054 nM.

Target: T2, human TREM1 (SPR of the humanised …)
Test: SPR, human TREM1, humanised IgG4P graft

B1 and B8 are within 1.5-fold of each other in Kd: 0.463 nM for the first, 0.437 nM for the second.

Compared with B9, B10 is 2.2-fold higher in Kd: 0.442 nM for the first, 0.989 nM for the second. The first binds more tightly here.

B11 and B12 are within 1.5-fold of each other in Kd: 0.693 nM for the first, 0.581 nM for the second.

B13 and B14 are within 1.5-fold of each other in Kd: 0.476 nM for the first, 0.362 nM for the second.

First: B15
Second: B16
The Kd of the first is 2.7-fold higher: 1.97 nM for the first, 0.718 nM for the second. The second binds more tightly here.

Compared with B17, B18 is 1.8-fold lower in Kd: 0.619 nM for the first, 0.336 nM for the second. The second binds more tightly here.

Target: T1, human TREM1 on cells
Test: cell-based or functional assay
Remark: another data set of the same source

Compared with B1, B2 is higher in “pSYK inhibition Emax, hTREM1/hDAP-12 Flp-In 293 cells stimulated with PGN-EC/PGLYRP1” value: 57% for the first, 72% for the second.

In the case of B3, the “pSYK inhibition Emax, hTREM1/hDAP-12 Flp-In 293 cells stimulated with PGN-EC/PGLYRP1” value is reported as 79%.

Compared with B1, B2 is higher in “pSYK inhibition IC50, hTREM1/hDAP-12 Flp-In 293 cells stimulated with PGN-EC/PGLYRP1” value: 357 pM for the first, 372 pM for the second.

B3 was tested, and the “pSYK inhibition IC50, hTREM1/hDAP-12 Flp-In 293 cells stimulated with PGN-EC/PGLYRP1” value was 960 pM.

Target: T2, human TREM1 (SPR of the humanised …)
Test: SPR, human TREM1, IgG4P charge mutant

B19 and B20 are within 1.5-fold of each other in Kd: 0.55 nM for the first, 0.37 nM for the second.

B21 gave a Kd of 0.394 nM.
